Drawing on PMC3978166, “A new unconventional HLA-A2-restricted epitope from HBV core protein elicits antiviral cytotoxic T lymphocytes” (Protein & Cell, 2014), this text covers FI (fluorescent index) for 1 substance.

This assay addresses HLA-A*0201 molecules on T2 cells (human (endogenous in T2)). The assay can be described thus: flow cytometry on cells. Background: In flow cytometry, cells or beads pass a laser one at a time.

Turning to HBc18–27 peptide, the FI (fluorescent index) worked out at 2.47.
